Source: US10251959B2, “Oligomer-beta blocker conjugates” (Nektar Therapeutics, priority 2007, dated 2019)

Amino acid sequences for entries named in this document (tags omitted).
UniProt P08588, whole entry: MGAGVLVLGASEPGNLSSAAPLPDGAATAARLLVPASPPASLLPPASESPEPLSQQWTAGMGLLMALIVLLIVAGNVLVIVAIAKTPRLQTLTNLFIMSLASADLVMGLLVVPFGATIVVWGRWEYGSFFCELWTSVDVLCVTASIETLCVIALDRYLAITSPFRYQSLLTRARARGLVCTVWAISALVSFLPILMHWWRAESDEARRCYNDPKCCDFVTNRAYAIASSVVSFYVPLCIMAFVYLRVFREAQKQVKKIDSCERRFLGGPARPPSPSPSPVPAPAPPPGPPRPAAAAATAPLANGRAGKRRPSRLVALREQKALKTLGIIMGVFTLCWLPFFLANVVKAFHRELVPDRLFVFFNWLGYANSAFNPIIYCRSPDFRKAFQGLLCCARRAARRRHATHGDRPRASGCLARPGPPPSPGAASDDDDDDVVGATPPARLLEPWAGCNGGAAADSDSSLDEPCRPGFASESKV

Molecular target: T1, adrenergic, beta-1 (human) (Homo sapiens, UniProt P08588)
T1 construct: expressed in transfected cells; host or cells: Sf9 insect cells (membranes)
Assay: adrenergic, beta-1 (human) binding assay; human recombinant Sf9 cells, membranes, Europium time-resolved fluorescence
Format: biochemical
Protocol: The compound of interest is added to the membrane and then incubated for ten minutes. Thereafter, 100 nM GTP-Eu is added and incubated for an additional thirty minutes. Europium fluorescence is measured in a time-resolved fluorometer in order to ascertain any functional antagonist activity at the adrenergic beta 1 site. […] Briefly, Human recombinant Sf9 cells were used, wherein reactions were carried out in 50 mM HEPES [pH 7.4] containing 3 mM MgCl2, 0.1 μM GDP, 10 μm/mL Saoonin, and 1 mM DTT (dithiothreitol). The compound of interest was added to the membrane and then incubated for ten minutes at room temperature. Then, 30 nM of isoproterenol [final] to each well was added and allowed to incubate for an additional 30 minutes. Europium fluorescence was measured in a time-resolved fluorometer in order to ascertain any functional antagonist activity at the adrenergic beta-1 site. […] Briefly, Human recombinant Sf9 cells were used, wherein reactions were carried out in 50 mM HEPES [pH 7.4] containing 3 mM MgCl2, 0.1 μM GDP, 10 μm/mL Saoonin, and 1 mM DTT (dithiothreitol). The compound of interest was added to the membrane and then incubated for ten minutes at room temperature. […] Europium fluorescence was measured in a time-resolved fluorometer in order to ascertain any functional antagonist activity at the adrenergic beta-1 site.

- IC50 (Table 2, 30 nM isoproterenol): 28.3 nM
- IC50 (Table 4, 30 nM isoproterenol): 12.9 nM
Structure (SMILES): C=CCc1ccccc1OCC(O)CNC(C)C (centres unmarked) [Alprenolol, alprenolol, reference compound]
